The list shows a part of the results, in another mix than the full data. Inconclusive results are not listed. Activity calls are given as the source filed them. The call rests on the fitted dose curve; in most records, active means well fitted activation curve with a large enough effect; inconclusive means small, poorly fitted or top-dose-only effect; inactive means no such curve, though single readings can be large or run the other way.
Test: qHTS for Activators of Integrin-Mediated Alleviation for Muscular Dystrophy;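 further: 100% = response of the positive control SU9516; nearly all actives have a fitted effect of over 60% in size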
Details: alpha7betagal myoblasts, beta-gal FDG fluorescence, 48 h; at 38.3 µM (top of the series) unless noted

| Structure (SMILES) | activation |
| --- | --- |
| CN(C)C(=O)OCCc1n(C)cc[n+]1C | inactive: -2.56% |
| CC(C)c1nc(Nc2ccccc2)n(P(=O)(N(C)C)N(C)C)n1 | inactive: -9.98% |
| CC(C)=N/N=C(\N)N[N+](=O)[O-] | inactive: 14.9% |
| CC1CCN(C(=O)Oc2c(Cl)cc(Cl)c3cccnc23)CC1 | inactive: -15.8% |
| c1cc(-c2nn[nH]n2)ccc1-c1nn[nH]n1 | inactive: -1.51% |
| Nc1ccc([As](=O)(O)c2ccc(N)cc2)cc1 | inactive: 14.3% |
| CCN(/C(=N/P(=O)(N1CCOCC1)N1CCOCC1)N1CCOCC1)c1ccc(OC)cc1 | inactive: -3.78% |
| O=[N+]([O-])c1cccc2n[nH]nc12 | inactive: 20.4% |
| CC(=O)N1C2C3N(C(C)=O)C1C1N(C(C)=O)C(C(N1C(C)=O)N3C(C)=O)N2C(C)=O | inactive: 20% |
| CCc1nc2c(n1)c1c(non1O)c1c2no[n+]1[O-] | inactive: -49.8% |
| O=[N+]([O-])c1cc([N+](=O)[O-])c(CCNc2ccccc2)c([N+](=O)[O-])c1 | inactive: -6.67% |
| Cc1ccc(NP(=O)(Oc2ccccc2)Oc2ccccc2)nc1 | inactive: -17.8% |
| COc1ccc(C2=NCC(CBr)S2)cc1 (stereo not given) | inactive: -16.3% |
| COC(=O)C1(C)COP(=O)(Nc2ccccc2)OC1 (stereo not given) | inactive: 13.8% |
| O=[N+]([O-])c1cccc(NC2=NCC(CBr)S2)c1 (stereo not given) | inactive: -12.5% |
| O=C(O)CNc1ccc([As](=O)(O)O)cc1 | inactive: -2.6% |
| CC(C)(C)C(=O)NC(Sc1ccncn1)C(Cl)(Cl)Cl (stereo not given) | inactive: -19% |
| O=[N+]([O-])c1ncn(CCn2ncnc2[N+](=O)[O-])n1 | inactive: 0% |
| O=C(Nc1cc([As](=O)(O)O)ccc1O)c1ccccc1 | inactive: 7.16% |
| O=P1(N(CCCl)CCCl)OCCCS1 (stereo not given) | inactive: -2.28% |
| CCN(N=Nc1nonc1N)c1nonc1N | inactive: -0.589% |
| Nc1cccc2ccc([As](=O)(O)O)cc12 | inactive: -3.08% |

| Structure (SMILES) | activation |
| --- | --- |
| Cc1ccc(NP(=O)(Oc2ccccc2F)Oc2ccccc2F)nc1 | inactive: 8.43% |
| Cc1cc(SC(NC(=O)c2ccc(F)cc2)C(Cl)(Cl)Cl)ncn1 (stereo not given) | inactive: -14.2% |
| CCOP(=O)(Nc1ccccc1)OCC | inactive: -1.58% |
| CCCC1OP(N)(=O)OCC1CC (stereo not given) | inactive: -16.8% |
| CC(=O)Nc1ccc([As](=O)(O)O)cc1 | inactive: 4.5% |
| O=C(O)c1ccccc1[As](=O)(O)O | inactive: 2.1% |
| O=P(Nc1nc2ccc(Cl)cc2s1)(c1ccccc1)c1ccccc1 | inactive: 15.8% |
| CN(C)P(=O)(N(C)C)n1c(Nc2ccccc2)nnc1-c1ccccc1 | inactive: -10.9% |
| Nc1cc(N)c2nonc2c1[N+](=O)[O-] | inactive: 20.1% |
| CC(C)CC(=O)NC(Sc1ccc(Cl)cc1)C(Cl)(Cl)Cl (stereo not given) | inactive: 7.5% |
| O=C(NC(Sc1ccncn1)C(Cl)(Cl)Cl)c1ccccc1 (stereo not given) | inactive: -11.9% |
| Oc1ccccc1CNc1ccccn1 | inactive: 0.304% |
| Cc1ccc(OP(=O)(Nc2nccs2)Oc2ccc(C)cc2)cc1 | inactive: 11.6% |
| COc1ccccc1OP(=O)(Nc1ccc(C)cn1)Oc1ccccc1OC | inactive: 15.8% |
| CN1CCCC(OC(=O)C(c2ccccc2)c2ccccc2)C1 (stereo not given) | inactive: -9.32% |
| Clc1ccc(Cl)c(NC2=NCC(CBr)S2)c1 (stereo not given) | inactive: -23.1% |
| NC(=O)c1cc([N+](=O)[O-])cc([N+](=O)[O-])c1N | inactive: 2.21% |
| Cc1ccc(N/C(=N/P(=O)(N2CCOCC2)N2CCOCC2)N2CCOCC2)cc1 | inactive: -1.01% |
| CC(=O)Nc1ccc(Oc2c([N+](=O)[O-])cc([N+](=O)[O-])cc2[N+](=O)[O-])cc1 | inactive: 14.6% |
| CC(=O)Nc1ccc([As](=O)(O)O)c(O)c1 | inactive: -3.07% |
| COC(=O)C1(C)COP(=O)(NCc2ccccc2)OC1 (stereo not given) | inactive: 23.6% |
| N#C/C(=C\c1ccc(N(CCBr)CCBr)cc1)C(N)=O | inactive: -25% |

| Structure (SMILES) | activation |
| --- | --- |
| C[C@H]1OP(=O)(Oc2ccccc2)C[C@@H]2O[C@@H]21 (stereo not given in full) | inactive: 16.9% |
| C[C@@H]1C=CCP(=O)(Oc2ccccc2)O1 (stereo not given in full) | inactive: 7.21% |
| Cc1ccccc1CN(C)C(=O)COC(=O)C(O)(c1ccccc1)c1ccccc1 | inactive: -7.29% |
| CCc1cc(O)c([N+](=O)[O-])c(C)c1[N+](=O)[O-] | inactive: 10.9% |
| CC(C)(C)C(=O)NC(Sc1ccccc1)C(Cl)(Cl)Cl (stereo not given) | inactive: 13.4% |
| CCOc1ccc(C2=NCC(CBr)S2)cc1 (stereo not given) | inactive: 8.75% |
| O=P1(Nc2nc3ccc(Cl)cc3s2)COc2ccccc2O1 (stereo not given) | inactive: 2.92% |
| O=c1c2cc([N+](=O)[O-])ccc2[nH]c2c([N+](=O)[O-])cc([N+](=O)[O-])cc12 | inactive: -67% |
| CN(C)C(=O)Oc1noc2ccccc12 | inactive: -13.9% |
| CC(NC(=O)COC(=O)C(O)(c1ccccc1)c1ccccc1)c1ccccc1 (stereo not given) | inactive: 2.42% |
| Cc1ccccc1OP(=O)(Nc1ccccn1)Oc1ccccc1C | inactive: -12.7% |
| CC(=O)NC(SC(=S)N(CC(C)C)CC(C)C)C(Cl)(Cl)Cl (stereo not given) | inactive: 10.4% |
| Cc1ccc(OP(=O)(Nc2ccccn2)Oc2ccc(C)cc2)cc1 | inactive: -18.2% |
| COC(=O)c1cc2c(s1)N=C(c1ccccc1)N(C)P2(=O)N1CCOCC1 (stereo not given) | inactive: -25.6% |
| CCC(=O)N1C2C3N(C(=O)CC)C1C1N(C(=O)CC)C(C(N1C(=O)CC)N3C(=O)CC)N2C(=O)CC | inactive: -2.85% |
| O=C(OC1CN2CCC1CC2)c1ccccc1 (stereo not given) | inactive: -12.2% |
| O=P1(N(CCCl)CCCl)OCCC2CCCCN21 (stereo not given) | inactive: -0.628% |
| CCNC(=S)/N=C(\N)N[N+](=O)[O-] | inactive: -23.8% |
| O=C(NC1CCS(=O)(=O)C1)NP(=S)(Oc1ccccc1)Oc1ccccc1 (stereo not given) | inactive: -0.271% |
| Cc1ccc(NP(=O)(Oc2cccc(C)c2)Oc2cccc(C)c2)nc1 | inactive: 2.92% |
| c1ccc(-c2nn[nH]n2)c(-c2nn[nH]n2)c1 | inactive: 12.3% |

From PubChem BioAssay AID624291 (National Center for Advancing Translational Sciences (NCATS), 2012)
